These are literature values, as cited in patent US11452728B2, “7-aminocephalosporanic acid derivative as inhibitor of IL15 and IL-2 activity” (Warszawski Uniwersytet Medyczny, priority 2013, dated 2022).

The conditions of this data set: in vivo; cited from earlier work.

Each structure is given as a SMILES string.

Consider `Cc1nnc(SCC2=C(C(=O)O)N3C(=O)[C@@H](NC(=O)Cn4cnnn4)[C@H]3SC2)s1` [Cefazolin], for which the “distribution into pleural cavity, peritoneal cavity, synovial fluid, bile, bones, urinary tract” value is “good bioavailability” and the metabolism entry is recorded as “not metabolized”.
